Results: ChEMBL document CHEMBL1135170, “4,4-Disubstituted cyclohexylamine NK(1) receptor antagonists II” (Bioorg Med Chem Lett, 2002)

By UniProt entry, the sequences of proteins in these tests, tags left out. Where a name states a change or a piece, a line headed by the entry shows the natural chain unless it says otherwise.
UniProt Q12809: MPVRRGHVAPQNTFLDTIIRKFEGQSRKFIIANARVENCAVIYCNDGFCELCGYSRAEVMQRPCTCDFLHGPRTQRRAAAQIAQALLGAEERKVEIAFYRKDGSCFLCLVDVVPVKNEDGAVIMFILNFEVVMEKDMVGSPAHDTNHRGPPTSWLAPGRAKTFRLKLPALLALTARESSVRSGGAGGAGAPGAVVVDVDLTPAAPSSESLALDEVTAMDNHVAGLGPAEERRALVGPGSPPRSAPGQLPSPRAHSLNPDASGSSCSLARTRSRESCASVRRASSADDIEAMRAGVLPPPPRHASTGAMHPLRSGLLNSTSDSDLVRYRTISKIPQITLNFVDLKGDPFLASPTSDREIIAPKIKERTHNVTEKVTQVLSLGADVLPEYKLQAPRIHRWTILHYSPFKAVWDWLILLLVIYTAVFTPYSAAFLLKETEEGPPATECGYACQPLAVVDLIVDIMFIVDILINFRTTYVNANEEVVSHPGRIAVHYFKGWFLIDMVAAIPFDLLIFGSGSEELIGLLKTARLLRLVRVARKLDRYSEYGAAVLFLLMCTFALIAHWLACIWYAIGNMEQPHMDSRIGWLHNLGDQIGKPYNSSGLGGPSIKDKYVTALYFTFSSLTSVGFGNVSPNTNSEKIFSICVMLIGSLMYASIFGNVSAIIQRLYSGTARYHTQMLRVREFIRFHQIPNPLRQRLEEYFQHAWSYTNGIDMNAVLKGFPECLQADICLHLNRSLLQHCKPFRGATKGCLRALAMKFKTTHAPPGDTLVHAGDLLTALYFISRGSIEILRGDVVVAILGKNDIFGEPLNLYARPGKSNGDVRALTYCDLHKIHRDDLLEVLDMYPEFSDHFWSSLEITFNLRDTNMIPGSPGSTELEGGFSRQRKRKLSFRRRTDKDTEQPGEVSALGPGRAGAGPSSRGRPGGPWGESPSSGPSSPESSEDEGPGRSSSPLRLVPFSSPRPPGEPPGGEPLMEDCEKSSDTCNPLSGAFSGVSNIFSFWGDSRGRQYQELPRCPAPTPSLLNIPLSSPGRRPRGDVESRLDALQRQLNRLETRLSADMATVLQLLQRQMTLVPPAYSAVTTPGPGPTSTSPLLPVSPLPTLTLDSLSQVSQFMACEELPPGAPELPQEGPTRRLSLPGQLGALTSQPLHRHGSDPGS

Target: Voltage-gated inwardly rectifying potassium channel KCNH2 (Homo sapiens, UniProt Q12809)
Experiment: Compound was evaluated for the displacement of labelled MK-499 from the cloned channel expressed in HEK cells (Ikr channel)
Assay type: cell-based, HEK293

Structure (SMILES) | Ki
CC(C(=O)N[C@]1(c2ccccc2)CC[C@@H](N2CCC(=O)CC2)CC1)c1cc(C(F)(F)F)cc(C(F)(F)F)c1 (stereo partly drawn) | 4 µM
CC(C(=O)N[C@]1(c2ccccc2)CC[C@@H](N2CCN(C(C)C)CC2)CC1)c1cc(C(F)(F)F)cc(C(F)(F)F)c1 (stereo partly drawn) | 1.2 µM
CC(C(=O)NC1(c2ccccc2)CCC(N2CCC3(CCOC3)CC2)CC1)c1cc(C(F)(F)F)cc(C(F)(F)F)c1 (stereo not drawn) | 0.71 µM
